Bioassay records: PubChem BioAssay, ICCB-Longwood Screening Facility, Harvard Medical School
HCMV UL50-53 inh – inhibitors of HCMV UL50-UL53 interaction, biochemical, HTRF; HCMV UL50-UL53 nuclear egress complex (human cytomegalovirus); normalized percent inhibition; inhibition, % (no concentration beside the values); 0.15% of 190,000 active; AID 1918969, 2023; in the data active = inhibition above about 27%, passing the limit was not always enough
GIV Gai3 FP – GIV-Galpha-i interaction inhibition. AID 1224905. actives 0.42% (n = 210,000). percent of control (FP), % (test concentration not listed). Galpha-i3/FITC-GIV peptide fluorescence polarization, 90 min; stronger effect = lower value; scaled: aluminum fluoride 0%, vehicle 100%;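 active = replicate mean at 85% of control or lower, very high polarization wells dropped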;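 also: wells of about 15 µL received 100 nL stock; the first replicate is given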
GIV-Gai FP conf – inhibitors of GIV peptide binding to Galpha-i3, confirmation, biochemical, fluorescence polarization, FITC-GIV peptide, rat Galphai3; stronger effect = lower value; shares compounds with GIV Gai3 FP; 38% of 580 active; fluorescence polarization, mP at 100 µM;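 active = inhibition score of 15 or more, meaning 100 minus mean polarization as percent of control over three replicates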
GIV-Gai AS conf – inhibitors of GIV binding to Galpha-i3, confirmation, orthogonal assay for GIV-Galpha-i inhibitor project, biochemical, AlphaScreen, His-GIV, GST-Galphai3 | shares compounds with GIV Gai3 FP | AlphaScreen counts at 100 µM | 39% of 580 active | purified proteins, 90 min; stronger effect = lower value;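 active = inhibition score at or above a set limit, where the score is 100 minus the three-replicate mean percent of control signal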
Numbers stand for hits. A selection: hits, their analogues and other compounds. The true share with any hit is near 0.46%.

How did O=C(Nc1ccc(Br)cc1F)c1cc(S(=O)(=O)N2CCc3ccccc3C2)ccc1F do in these assays?
GIV Gai3 FP: inactive

Results for CCOc1ccc(CSc2ncn[nH]2)cc1 ?
HCMV UL50-53 inh: inactive; GIV Gai3 FP: inactive

How did O=C1C(Sc2ncn[nH]2)=C/C(=N/S(=O)(=O)c2cccs2)c2ccccc21 do in these assays?
HCMV UL50-53 inh: 51.3; GIV Gai3 FP: 18.3; GIV-Gai FP conf: 39.8; GIV-Gai AS conf: 4995

What do the screens show for `O=S(=O)(Nc1cc(Sc2ncn[nH]2)c(O)c2ccccc12)c1cccs1`?
HCMV UL50-53 inh: inactive; GIV Gai3 FP: inactive

What do the screens show for `CCOc1ccc(S(=O)(=O)/N=C2/C=C(Sc3ncn[nH]3)C(=O)c3ccccc32)cc1`?
HCMV UL50-53 inh: inactive; GIV Gai3 FP: 11.3; GIV-Gai FP conf: 31.8; GIV-Gai AS conf: 6312

What do the screens show for `O=C(O)C(Sc1ncn[nH]1)c1ccccc1` (centres undefined)?
HCMV UL50-53 inh: inactive

What do the screens show for `O=C1C(Sc2ncn[nH]2)=C/C(=N/S(=O)(=O)c2ccc(F)cc2)c2ccccc21`?
HCMV UL50-53 inh: inactive; GIV Gai3 FP: 3.7; GIV-Gai FP conf: 36.1; GIV-Gai AS conf: 5053

What do the screens show for `O=C(O)c1ccc(/C=N/n2cnnc2)cc1`?
HCMV UL50-53 inh: inactive; GIV Gai3 FP: inactive

Results for CCn1c(C)cc2c(c1=O)C(C(C)C)C(C#N)=C(N)O2 (centres undefined) ?
HCMV UL50-53 inh: inactive; GIV Gai3 FP: inactive

What do the screens show for `COc1ccc(-c2nc(SC(C(=O)NC(N)=O)C(C)C)n[nH]2)cc1` (centres undefined)?
HCMV UL50-53 inh: inactive

Results for CCN1C(=O)COc2ccc(-c3noc(C4(c5ccc(OC)cc5)CC4)n3)cc21 ?
GIV Gai3 FP: inactive

What do the screens show for `Cc1ccc(S(=O)(=O)c2ccc(C(=O)O)cn2)cc1C`?
HCMV UL50-53 inh: inactive; GIV Gai3 FP: inactive

What do the screens show for `CCOc1ccc(SCC(=O)O)cc1`?
HCMV UL50-53 inh: inactive

Results for Cc1cc(=O)oc2c1ccc1occ(Nc3cccc4ccccc34)c12 ?
GIV Gai3 FP: inactive

How did O=C(Cn1cc(/C=c2/sc3nc4ccccc4n3c2=O)c2ccccc21)N1CCCC1 do in these assays?
HCMV UL50-53 inh: inactive; GIV Gai3 FP: 80.1; GIV-Gai FP conf: inactive; GIV-Gai AS conf: inactive

How did COc1ccc(OC)c(/C=c2\sc3nc4ccccc4n3c2=O)c1 do in these assays?
HCMV UL50-53 inh: inactive; GIV Gai3 FP: inactive; GIV-Gai FP conf: 52.3; GIV-Gai AS conf: inactive

Results for COc1ccc(/C=c2/sc3nc4ccccc4n3c2=O)cc1 ?
HCMV UL50-53 inh: inactive

What do the screens show for `O=C(Cn1cc(/C=c2/sc3nc4ccccc4n3c2=O)c2ccccc21)Nc1ccccc1`?
GIV Gai3 FP: inactive

Results for Cc1cc2nc3c(=O)n(C)c(=O)[nH]c3nc2cc1N=CN(C)C ?
HCMV UL50-53 inh: inactive; GIV Gai3 FP: inactive; GIV-Gai FP conf: 11.5; GIV-Gai AS conf: 26021

How did CC(=O)Nc1cc2nc3[nH]c(=S)[nH]c(=O)c3nc2cc1C do in these assays?
HCMV UL50-53 inh: inactive; GIV Gai3 FP: inactive

Results for CC(=O)Nc1cc2nc3[nH]c(=O)n(C)c(=O)c3nc2cc1C ?
HCMV UL50-53 inh: inactive; GIV Gai3 FP: 69.3; GIV-Gai FP conf: inactive; GIV-Gai AS conf: inactive

What do the screens show for `CCCCCCn1c(=O)[nH]c2nc3cc(N)c(C)cc3nc2c1=O`?
HCMV UL50-53 inh: inactive; GIV Gai3 FP: inactive

How did COC(=O)c1c(NC(=O)c2cc(=O)c3ccccc3o2)sc2c1CCCC2 do in these assays?
HCMV UL50-53 inh: inactive; GIV Gai3 FP: inactive; GIV-Gai FP conf: inactive; GIV-Gai AS conf: inactive

Results for O=C(Nc1sc2c(c1C(=O)NCC1CCCO1)CCCC2)c1cc(=O)c2ccccc2o1 (centres undefined) ?
HCMV UL50-53 inh: inactive; GIV Gai3 FP: inactive

Results for C=CCNC(=O)C(C)N1CCN(C)CC1 (centres undefined) ?
HCMV UL50-53 inh: inactive; GIV Gai3 FP: inactive

What do the screens show for `CCc1ccc(C(=O)NC(Cc2c[nH]c3ccccc23)C(=O)OCC(=O)c2ccc(OC)cc2)cc1` (centres undefined)?
GIV Gai3 FP: inactive

What do the screens show for `CCc1ccc(C(=O)NC(Cc2c[nH]c3ccccc23)C(=O)OCC(=O)c2ccccc2)cc1` (centres undefined)?
GIV Gai3 FP: 84.7; GIV-Gai FP conf: inactive; GIV-Gai AS conf: inactive

Results for Cc1cc(C)c(S(=O)(=O)N2CCCCC2C(=O)N2CCN(c3ccccc3F)CC2)c(C)c1 (centres undefined) ?
HCMV UL50-53 inh: inactive; GIV Gai3 FP: inactive

What do the screens show for `O=C1C=CC(=O)C(c2ccc(C(=O)O)cc2)=C1`?
HCMV UL50-53 inh: inactive; GIV Gai3 FP: 69.8; GIV-Gai FP conf: 55.3; GIV-Gai AS conf: 2443

Results for CC(C)c1ccc(C2=CC(=O)C=CC2=O)cc1 ?
HCMV UL50-53 inh: inactive; GIV Gai3 FP: inactive

How did O=C1NC(=O)C2C1Sc1[nH]c(=O)sc1C2c1ccco1 (centres undefined) do in these assays?
HCMV UL50-53 inh: inactive; GIV Gai3 FP: 78.3; GIV-Gai FP conf: inactive; GIV-Gai AS conf: 3023

Results for COc1ccc(C2c3sc(=O)[nH]c3SC3C(=O)N(c4ccccc4)C(=O)C32)cc1 (centres undefined) ?
HCMV UL50-53 inh: inactive; GIV Gai3 FP: inactive

How did Cc1cc(NCCOCCO)n2nc(C(F)(F)F)c(-c3ccc(F)cc3)c2n1 do in these assays?
HCMV UL50-53 inh: inactive; GIV Gai3 FP: inactive

What do the screens show for `CCOc1cc(C(c2c(C)[nH]n(-c3ccccc3)c2=O)c2c(C)[nH]n(-c3ccccc3)c2=O)ccc1O`?
HCMV UL50-53 inh: inactive; GIV Gai3 FP: inactive

What do the screens show for `Cc1ccc(C(c2c(C)[nH]n(-c3ccccc3)c2=O)c2c(C)[nH]n(-c3ccccc3)c2=O)cc1`?
GIV Gai3 FP: inactive

What do the screens show for `Cc1[nH]n(-c2ccccc2)c(=O)c1C(c1ccc(F)cc1)c1c(C)[nH]n(-c2ccccc2)c1=O`?
GIV Gai3 FP: 72.0; GIV-Gai FP conf: inactive; GIV-Gai AS conf: 24882

Results for Cc1[nH]n(-c2ccccc2)c(=O)c1C(c1cc(Cl)ccc1O)c1c(C)[nH]n(-c2ccccc2)c1=O ?
HCMV UL50-53 inh: inactive; GIV Gai3 FP: inactive

How did Cc1[nH]n(-c2ccccc2)c(=O)c1C(c1ccccc1O)c1c(C)[nH]n(-c2ccccc2)c1=O do in these assays?
GIV Gai3 FP: 67.0; GIV-Gai FP conf: inactive; GIV-Gai AS conf: 17967

What do the screens show for `COc1ccc(C(c2c(C)[nH]n(-c3ccccc3)c2=O)c2c(C)[nH]n(-c3ccccc3)c2=O)cc1OC`?
GIV Gai3 FP: 76.3; GIV-Gai FP conf: 44.4; GIV-Gai AS conf: 4694

Results for COc1ccc(C(c2c(C)[nH]n(-c3ccccc3)c2=O)c2c(C)[nH]n(-c3ccccc3)c2=O)cc1 ?
GIV Gai3 FP: inactive
